{
  "source": "PubChem BioAssay AID2717",
  "about": "(Broad Institute, 2010)",
  "note": "This is a selection; strong and weak results do not stand in their true shares. Active and inactive are the calls of the source. Rule as the data show it: active = inhibition above about 75%; inconclusive = no clear call, values can overlap the other calls; inactive = below that; tested in HMLE shEcad cells.",
  "data": [
    {"test": "growth suppression of cancer stem-like cells – cell-based, luminescence, primary screen (AID 2717)", "conditions": "cancer stem cell-like cells viability, at 7.5 µM, stronger effect = higher value", "values": [
      {"smiles": "O=[N+]([O-])c1ccc(O)c(/C=N/Nc2ccc([N+](=O)[O-])cc2[N+](=O)[O-])c1", "inhibition": "active: 78.4%"}
    ]}
  ]
}
